The record followed here is PubChem BioAssay AID538 (PCMD, 2006).

By UniProt entry, the sequences of proteins in these tests, tags left out. Where a name states a change or a piece, a line headed by the entry shows the natural chain unless it says otherwise.
UniProt P09871: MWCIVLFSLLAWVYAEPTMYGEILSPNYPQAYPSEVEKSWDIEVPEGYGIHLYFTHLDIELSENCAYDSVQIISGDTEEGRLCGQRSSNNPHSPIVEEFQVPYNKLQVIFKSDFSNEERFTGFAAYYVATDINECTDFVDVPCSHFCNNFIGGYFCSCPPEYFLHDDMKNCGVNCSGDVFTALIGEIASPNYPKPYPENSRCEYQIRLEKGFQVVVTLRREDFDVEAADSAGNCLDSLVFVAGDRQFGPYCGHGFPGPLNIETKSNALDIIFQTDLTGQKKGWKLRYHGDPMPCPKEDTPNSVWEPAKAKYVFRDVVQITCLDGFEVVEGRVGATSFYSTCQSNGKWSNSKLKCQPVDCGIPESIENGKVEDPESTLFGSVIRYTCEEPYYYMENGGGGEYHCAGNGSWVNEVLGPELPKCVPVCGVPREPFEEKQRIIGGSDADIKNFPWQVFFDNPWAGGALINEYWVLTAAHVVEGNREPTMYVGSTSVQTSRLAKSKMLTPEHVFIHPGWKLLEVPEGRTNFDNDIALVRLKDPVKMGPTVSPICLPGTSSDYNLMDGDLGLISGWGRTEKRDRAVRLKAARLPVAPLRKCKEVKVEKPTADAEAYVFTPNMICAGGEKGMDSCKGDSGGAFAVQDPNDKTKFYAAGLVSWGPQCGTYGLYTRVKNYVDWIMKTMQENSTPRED

The structures appear in SMILES notation. The list shows a part of the results, in another mix than the full data. Activity calls are given as the source filed them.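 The calls were made as follows: active = inhibition above 20% in each of the two 10-compound mixture wells holding the compound; inactive = the rest.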

The assay concerns the target Complement C1s subcomponent (Homo sapiens) (UniProt P09871). Briefly: human C1s inhibition by compound pools – biochemical, 10-compound mixtures, primary screen (AID 538).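 Also: 0% = enzyme wells lacking compound mixture and 100% = no-enzyme blank wells.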 The following applies: purified C1s, fluorogenic AMC substrate, pooled mixtures; screened at 5 µM (by protocol).
As for `CCOP1(=S)c2c(C)nn(CCC#N)c2N=C(c2ccc(F)cc2)N1C` (stereo not given), the mean inhibition % of two 10-compound mixtures (active compounds read high) is inactive: -0.21%.

In the case of `CCOP1(=S)c2c(C)nn(CCC#N)c2N=C(c2ccccc2F)N1C` (stereo not given), the mean inhibition % of two 10-compound mixtures (active compounds read high) was inactive: -23.7%.

As to `O=P(Nc1nccs1)(c1ccccc1)c1nc2ccccc2s1` (stereo not given), the mean inhibition % of two 10-compound mixtures (active compounds read high) is inactive: -3.73%.

Consider `Cc1cccc(OCC(=O)OC2CN3CCC2CC3)c1` (stereo not given), for which the mean inhibition % of two 10-compound mixtures (active compounds read high) was inactive: -25.7%.

Consider `Clc1n[nH]nc1-c1nn[nH][15n]1`, for which the mean inhibition % of two 10-compound mixtures (active compounds read high) was inactive: 2.99%.

On to `O=P1(Nc2ccccn2)COc2ccccc2OC1`, for which the mean inhibition % of two 10-compound mixtures (active compounds read high) was inactive: 13.6%.

For the compound `Cc1ccc(OCC(=O)OC2CN3CCC2CC3)cc1` (stereo not given), the mean inhibition % of two 10-compound mixtures (active compounds read high) was inactive: -26.8%.

As for `O=P1(Nc2ccc(Br)cn2)COc2ccccc2OC1`, the mean inhibition % of two 10-compound mixtures (active compounds read high) is inactive: -11.9%.

On to `O=P1(Nc2ncccn2)COc2ccccc2OC1`, for which the mean inhibition % of two 10-compound mixtures (active compounds read high) is inactive: 15.2%.

`Cc1nn(-c2ccccc2)c2c1P(=O)(N1CCOCC1)N(C)C(c1ccccc1)=N2` (stereo not given): the mean inhibition % of two 10-compound mixtures (active compounds read high) is inactive: -14.7%.

As to `O=C(COc1ccccc1)OC1CN2CCC1CC2` (stereo not given), the mean inhibition % of two 10-compound mixtures (active compounds read high) is inactive: 12.3%.

On to `COP1(=S)c2c(C)nn(CCC#N)c2N=C(c2ccc(F)cc2)N1C` (stereo not given), for which the mean inhibition % of two 10-compound mixtures (active compounds read high) was inactive: 7.35%.

Take `O=C(OC1CN2CCC1CC2)C12CC3CC(CC(C3)C1)C2` (stereo not given): the mean inhibition % of two 10-compound mixtures (active compounds read high) is inactive: -7.05%.

Take `Cc1c2non([O-])c-2c(C)[n+](=O)[n+]1[O-]`: the mean inhibition % of two 10-compound mixtures (active compounds read high) is inactive: 1.06%.

Regarding `CCc1nc2c(n1)c1c(non1O)c1c2no[n+]1[O-]`, the mean inhibition % of two 10-compound mixtures (active compounds read high) is inactive: -0.875%.

Turning to `O=C(OC1CN2CCC1CC2)c1cccc(Cl)c1` (stereo not given), the mean inhibition % of two 10-compound mixtures (active compounds read high) was inactive: -6.64%.

Consider `c1nnnn1CCn1cnnn1`, for which the mean inhibition % of two 10-compound mixtures (active compounds read high) is inactive: -2.29%.

As to `O=P(Nc1nccs1)(c1ccccc1)c1ccccc1`, the mean inhibition % of two 10-compound mixtures (active compounds read high) was inactive: -15.5%.

For the compound `O=P1(Nc2nc3ccc(Cl)cc3s2)COc2ccccc2O1` (stereo not given), the mean inhibition % of two 10-compound mixtures (active compounds read high) was inactive: 2.02%.

Regarding `COC(=O)c1cc2c(s1)N=C(c1ccccc1)N(C)P2(=O)N1CCOCC1` (stereo not given), the mean inhibition % of two 10-compound mixtures (active compounds read high) was inactive: 27.4%.
